Earlier results, collected in US20250009714A1, “SELECTION AND TREATMENT OF SUBJECTS HAVING A CIRCULATING MYELOID CELL INFLAMMATORY PHENOTYPE” (Tranquis Therapeutics, Inc., priority 2021, published 2025).

System: SOD1-G93A mice
Details: SOD1 mouse model; cited from earlier work

Nc1nc2ccc(OC(F)(F)F)cc2s1 [riluzole]
survival benefit in the SOD1 model (approved ALS treatments): failed to display survival benefits
